{"source": "patent US20110152252A1", "about": "(priority 2007, published 2011)", "assay": "Solubility", "format": "physicochemical", "data": [{"smiles": "CN1C(=O)CN=C(c2ccc(Cl)cc2)c2cc(Cl)ccc21", "values": [{"measurement": "solubility in DMSO or ethanol", "result": "soluble"}, {"measurement": "solubility in water / aqueous solutions", "result": "insoluble"}]}]}
